Results as given in patent US6375928B1, “Neutrophil stimulating peptides” (Peptech Limited, priority 1990, dated 2002).

Key:
Type in all cases: cell-based
monocytes = assay: Priming of monocytes for a respiratory burst (chemiluminescence); settings: 10^6 monocytes/tube/ml, 30 min pre-incubation 37° C.
Procedure: Peptide 419 (SEQ ID NO. 18) was assayed for its ability to prime monocytes for a respiratory burst. This assay was conducted essentially as described above for neutrophils except that the cells were cultured for 24 hours prior to assay.
Peptide 419 100 μg/10^6 monocytes—30 mins pre-incubation at 37° C.

neutrophils [1] = assay: Neutrophil random migration out of wells in agarose
Description: Migration of cells is an important property by which cells reach infection sites. Their accumulation at these sites is also dependent on the capacity of inflammatory mediators to inhibit their migration out of the sites.

neutrophils [2] = assay: Chemotactic properties, neutrophil migration under agarose; settings: towards agent well; 1 × 10^−7 M fMLP, peptide, or 10^3 U/ml TNFα; 2×10^5 neutrophils
Procedure: 3 ml of molten 2% agarose was mixed with 3 ml of 2× concentrated medium 199 containing foetal calf serum (10%) and poured into Petri dishes. Sets of 3 wells of 2.5 mm diameter, each 3 mm apart, were cut in the agarose. 5 μl of neutrophils (2×10^5 cells) were added to the inner well, with chemotactic agent or control medium added to the outer wells. Migration at various time intervals was then measured.

[3] = with fMLP, 419 100 μg/10^6 monocytes, 50 U TNF or no pre-treatment
[4] = without fMLP, 419 100 μg/10^6 monocytes or 50 U TNF

## TNF: Tumour necrosis factor, a product of activated macrophages; comparator
monocytes; [3]
  Peak mV Chemiluminescence, Mean ± S.D.: 133.5 ± 41.719 mV
  Peak mV Chemiluminescence, experiment 1: 104.0 mV
  Peak mV Chemiluminescence, experiment 2: 163.0 mV
monocytes; [4]
  Peak mV Chemiluminescence, Mean ± S.D.: 1.885 ± 0.206 mV
  Peak mV Chemiluminescence, experiment 1: 2.03 mV
  Peak mV Chemiluminescence, experiment 2: 1.74 mV
Neutrophils [1]
  effect on neutrophil random migration (in words): only partially migration inhibitory
Neutrophils [2]
  Migration distance at 1.5 h, Agent: 0.48 mm
  Migration distance at 2.5 h, Agent: 0.69 mm
